# Results reported in publication PMC8007834, “Anti-estrogenic and anti-aromatase activities of citrus peels major compounds in breast cancer” (Scientific Reports, 2021).
# Test system: Aromatase
# Test: Aromatase protein levels in EAC solid tumors (ELISA)
# Settings: ELISA on tumor homogenates, day 20; quercetin 100, naringenin 50, naringin 100 mg/kg i.p.
compound,measurement,value
"O=C1CC(c2ccc(O)cc2)Oc2cc(O)cc(O)c21 (stereo not shown) [C4, 5,7,4′-trihydroxy flavanone]","aromatase levels in tumors, lower than positive control group",62.43%
